SR-BI uptake up = activators of SR-BI mediated DiI-HDL uptake, primary screen, ldlA[mSR-BI] CHO cells, DiI fluorescence | 3 h; 100 = double the neutral-control signal | activation, % at 12.5 µM | actives 0.096% (n = 320,000) | AID 504775, 2011;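 active = mean replicate activation of at least 60% and every replicate at or above 60%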
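Test system: SR-BI-overexpressing, LDLR-lacking CHO cells. Measured by: DiI fluorescence, bottom read. Medium: Ham's F12 with 0.5% BSA, HEPES 25 mM, pH 7.4. Timing: 3 h uptake period with compound, 37 °C.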
GSIS activator = GLuc luminescence reporter in INS-1E cells, primary screen for activators of glucose-dependent secretion of insulin. AID 743287, 2014. INS-1E GLuc reporter insulin secretion, 2-3 h. actives 0.61% (n = 370,000). activation, % at 16.6 µM;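 active = lowest replicate activation of at least 40%, so every replicate reaches that level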
SR-BI HDL uptake = inhibitors of SR-BI mediated HDL lipid uptake, primary screen, ldlA[mSR-BI] cells, fluorescence, single point; ldlA[mSR-BI] CHO cells, DiI-HDL uptake fluorescence, 3 h; inhibition, % at 12.5 µM; actives 0.96% (n = 320,000); AID 488896, 2010;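 active = mean replicate inhibition of at least 70% and a set share of replicates each scoring 70 or more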
UUG fidelity = modulators of yeast start codon fidelity, primary screen, whole organism, S. cerevisiae, single point, plate reader | activity score, % at 18.7 µM | 350,000 tested, 0.13% active | S. cerevisiae UUG-firefly luciferase reporter, luminescence/redox ratio;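 active means replicate mean at a twofold rise or more, about +100% in these data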;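 further: firefly luciferase made from a UUG start codon reports start codon fidelity; reporter light over untreated wells divided by growth signal over untreated wells; some hits fall short of that in this replicate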
A number is an active result; i = inactive; nt = no result given. Most compounds without a hit are left out; they make up all but 1.3% or so of the library.

SMILES	SR-BI uptake up	GSIS activator	SR-BI HDL uptake	UUG fidelity
C/C(=N\NC(=O)c1ccccc1O)c1c(O)cc(C)oc1=O	i	i	101.4	i
COc1ccc(NC(=O)N(C)C[C@@H]2OCCCC[C@@H](C)Oc3ccc(NC(=O)CCCN(C)C)cc3C(=O)N([C@@H](C)CO)C[C@H]2C)cc1	nt	i	nt	i
CN(C)CCOc1ccc(/C(=C(/CCCl)c2ccccc2)c2ccccc2)cc1	i	104.3	i	i
COc1ccccc1NC(=O)N1C[C@@H](C)[C@H](OC)CN(C)C(=O)c2ccc(NC(=O)c3ccccn3)cc2OC[C@H]1C	nt	nt	nt	i
COc1nc(-c2ccccc2)c2cc(C)ccc2n1	i	72.0	i	i
O=[N+]([O-])c1ccc(-c2cc(-c3ccc(Cl)cc3)n[nH]2)cc1	i	70.7	i	i
CC(OC(=O)CCN1C(=O)C2CC=CCC2C1=O)C(=O)Nc1cccc(Cl)c1 (stereo unspecified)	i	63.1	i	nt
Fc1ccc(C2=NN(c3ccccc3)C(c3ccco3)C2)cc1 (stereo unspecified)	i	i	i	nt
Cc1ccc(N2N=C(c3ccc(F)cc3)CC2c2ccco2)cc1 (stereo unspecified)	i	i	79.1	nt
C[C@@H]1CN([C@H](C)CO)S(=O)(=O)c2ccc(C#Cc3ccncc3)cc2O[C@@H]1CN(C)CC1CC1	nt	i	nt	i
CCNc1nc2c(c(=O)[nH]c(=O)n2C)n1Cc1ccc(F)cc1	nt	49.0	nt	i
Cn1c(=O)[nH]c(=O)c2c1nc(NC1CCCC1)n2Cc1ccccc1	i	45.7	i	i
CCCNc1nc2c(c(=O)[nH]c(=O)n2C)n1Cc1ccc(F)cc1	nt	i	nt	i
COc1ccc(NC(=O)Nc2cccc3c2O[C@@H](CN(C)C(=O)Nc2cccc4ccccc24)[C@H](C)CN([C@@H](C)CO)C3=O)cc1	nt	i	nt	i
Cc1ccc(C(=O)Nc2cccc(-c3ccc(N4CCOCC4)nn3)c2)cc1	i	i	i	i
Cc1ccc(C(=O)Nc2cccc(-c3ccc(N4CCOCC4)nn3)c2)cc1C	i	i	77.4	nt
CC(C)NC(=O)N(C)C[C@H]1Oc2c(NS(=O)(=O)c3ccc(Cl)cc3)cccc2C(=O)N([C@H](C)CO)C[C@@H]1C	nt	i	nt	i
C[C@@H](NC(=O)[C@@H]1[C@@H](CO)[C@@H]2Cn3c(cccc3=O)[C@H]1N2Cc1ccncc1)c1ccccc1	nt	i	nt	nt
O=C(CC1CC1)N1CC2(C1)[C@H](c1ccccc1)[C@@H](CO)N2CC1CCOCC1	nt	i	nt	nt
CCc1c(C)sc(NC(=O)c2cc(-c3ccc(OC)c(OC)c3)on2)c1C#N	i	80.4	i	nt
CCc1c(C)sc(NC(=O)c2cc(-c3cc(OC)ccc3OC)on2)c1C#N	i	i	i	i
O=C(COc1ccc2c(c1)OCO2)Nc1ccc2c(c1)oc1ccccc12	i	80.8	i	i
O=C(Nc1ccc2c(c1)oc1ccccc12)c1ccc2c(c1)OCO2	i	nt	i	i
COc1cccc(/C=N/N2CCN(C3c4ccccc4-c4ccccc43)CC2)c1O	i	i	71.6	i
COc1cc(/C=N/N2CCN(C3c4ccccc4-c4ccccc43)CC2)ccc1O	i	nt	i	nt
SMILES	SR-BI uptake up	GSIS activator	SR-BI HDL uptake	UUG fidelity
COc1ccc(N=c2oc3cc(O)ccc3cc2C(=O)Nc2ccccn2)cc1OC	i	i	71.5	nt
COc1cc(NC(=O)c2cccc(C)c2)ccc1NC(=O)c1cc2ccccc2o1	i	82.7	84.7	i
CCOc1cccc(C(=O)Nc2ccc(NC(=O)c3cc4ccccc4o3)c(OC)c2)c1	i	i	71.7	i
COc1cc(NC(=O)c2cccc([N+](=O)[O-])c2)ccc1NC(=O)c1cc2ccccc2o1	i	i	i	i
CO[C@@H]1CN(C)C(=O)c2cc(NC(=O)c3ccc4c(c3)OCO4)ccc2OC[C@H](C)NC[C@H]1C	nt	i	nt	i
CCOC(=O)[C@]12Cc3c(cc(OC)c(OC)c3OC)[C@H]1N(C1CCCCC1)C(=O)c1cc(OC)ccc12	nt	178.0	nt	nt
C[C@@H]1CN([C@H](C)CO)C(=O)c2cc(NC(=O)CCC(F)(F)F)ccc2O[C@@H](C)CCCCO[C@H]1CN(C)S(=O)(=O)c1cn(C)cn1	nt	i	nt	i
CC(=O)N(C)C[C@H]1Oc2ccc(N(C)C)cc2CC(=O)N(C)C[C@@H]1C	nt	i	nt	nt
C[C@H](CO)N1C[C@H](C)[C@H](CN(C)C(=O)NC2CCCCC2)OCCCC[C@H](C)Oc2ccc(NC(=O)Nc3ccc(F)cc3)cc2C1=O	nt	i	nt	i

Assay outcomes as filed in PubChem.
